# Earlier results in patent US11254696B2, “Dianilinopyrimidine compound for inhibiting kinase activity” (Shenzhen Targetrx, Inc., priority 2017, dated 2022).
# Columns and labels:
# ALK I1171N/T/S = conditions: Crizotinib-resistant mutation; cited from earlier work
# ALK+NSCLC = conditions: cited from earlier work
SMILES,effect on I1171N/T/S (ALK I1171N/T/S),ALK-positive patients with no objective response at the beginning of therapy (ALK+NSCLC; ALK-positive patients),median progression-free survival (ALK+NSCLC; patients with ALK+NSCLC),objective response rate (ALK+NSCLC; patients with ALK+NSCLC)
CCc1cc2c(cc1N1CCC(N3CCOCC3)CC1)C(C)(C)c1[nH]c3cc(C#N)ccc3c1C2=O [Alectinib],no effect,,,
C[C@@H](Oc1cc(-c2cnn(C3CCNCC3)c2)cnc1N)c1c(Cl)ccc(F)c1Cl [Crizotinib],,About 40%,8-11 months,60-74%
